Target: Pim-1 kinase (Homo sapiens, UniProt P11309)
Test: Promega Kinase-Glo Pim-1 kinase inhibition assay;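 also: in vitro Pim-1 reaction run 2 h at 30 °C, then leftover ATP measured by luciferase luminescence, where signal falls as kinase activity rises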
[1] = IC50 on Pim1, Table X, Kinase-Glo

Amino acid sequences for entries named in this document (tags omitted).
UniProt P11309, whole entry: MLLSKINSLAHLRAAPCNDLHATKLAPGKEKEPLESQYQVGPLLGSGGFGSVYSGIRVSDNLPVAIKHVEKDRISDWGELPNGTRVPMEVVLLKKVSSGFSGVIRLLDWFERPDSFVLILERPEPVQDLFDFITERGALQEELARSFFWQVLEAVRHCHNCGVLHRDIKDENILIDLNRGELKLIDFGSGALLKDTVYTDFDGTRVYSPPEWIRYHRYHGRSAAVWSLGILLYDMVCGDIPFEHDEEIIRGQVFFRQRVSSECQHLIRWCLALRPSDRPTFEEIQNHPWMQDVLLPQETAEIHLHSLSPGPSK

Row | IC50 [1] [µM] | Compound | IC50 (IC50 on Pim1) [µM]
1 | 0.01 to 0.1 | O[C@H]1CC[C@H](Nc2ccc3ncc(-c4cccc(OC(F)(F)F)c4)n3n2)CC1 [Compound 8-1, 4-((3-(3-(Trifluoromethoxy)phenyl)imidazo[1,2-b]pyridazin-6-yl)amino)-trans-cyclohexanol] | 
2 | 0.01 to 0.1 | N#Cc1cccc(-c2cnc3ccc(N[C@H]4CC[C@H](O)CC4)nn23)c1 [Compound 8-26] | 
3 | 0.1 to 1 | O[C@H]1CC[C@H](Nc2ccn3ncc(-c4cccc(Cl)c4)c3n2)CC1 [Compound 8-61] | 

The next lines start with the compound.

Row | Compound | IC50 [1] [µM] | IC50 (IC50 on Pim1) [µM]
4 | O[C@H]1CC[C@@H](Nc2ccc3ncc(-c4cccc(OC(F)(F)F)c4)n3n2)CC1 [Compound 8-2, 4-((3-(3-(Trifluoromethoxy)phenyl)imidazo[1,2-b]pyridazin-6-yl)amino)-cis-cyclohexanol] | 0.01 to 0.1 | 
5 | CN1CCC(O)(CNc2ccc3ncc(-c4cccc(OC(F)(F)F)c4)n3n2)CC1 [Compound 8-22, 1-Methyl-4-(((3-(3-(trifluoromethoxy)phenyl)imidazo[1,2-b]pyridazin-6-yl)amino)methyl)piperidin-4-ol] |  | 0.01 to 0.1

Reference: patent publication US20120058997A1, “IMIDAZO[1,2-B]PYRIDAZINE AND PYRAZOLO[1,5-A]PYRIMIDINE DERIVATIVES AND THEIR USE AS PROTEIN KINASE INHIBITORS” (SuperGen, Inc., priority 2006, published 2012)
